101 compounds from PubChem BioAssay AID781 (Emory University Molecular Libraries Screening Center, 2007) can be followed below.

Sequences of proteins named here, by UniProt entry; tags and fusion partners are left off. A change or cut given only in a name is not applied to a line headed by its entry.
UniProt P63103: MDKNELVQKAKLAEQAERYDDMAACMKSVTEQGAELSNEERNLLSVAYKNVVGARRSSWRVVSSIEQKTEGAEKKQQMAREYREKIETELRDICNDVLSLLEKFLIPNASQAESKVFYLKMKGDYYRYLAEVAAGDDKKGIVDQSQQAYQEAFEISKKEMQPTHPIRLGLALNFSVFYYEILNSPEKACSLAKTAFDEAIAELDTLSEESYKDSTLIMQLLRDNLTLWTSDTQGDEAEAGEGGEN

“And” between values parts separate entries of the source, which are not always exact repeats. Equal entries are not always repeated. The list shows a part of the results, in another mix than the full data. The source made the active and inactive calls.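 How the source made its calls: active means inhibition above about 70% (limit read from the data); inactive means the rest.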

The assay has as its target 14-3-3 protein zeta/delta (Bos taurus) (UniProt P63103). Description: disruptors of 14-3-3 zeta phospho-Bad complex – biochemical, TR-FRET, bovine 14-3-3 zeta, primary screen (AID 781).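 Further: 0% = full 14-3-3 plus peptide FRET controls and 100% = background without 14-3-3.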 The note with it: TR-FRET 14-3-3zeta/Dy647-pBad peptide displacement, 1 h; at 21.7 µM; stronger effect = higher value. A general note: In TR-FRET formats the signal depends on donor and acceptor labels being close together.
Usually inhibition stands for the relative decrease from the control value, in per cent. For the compound `CC(C)C(=O)NC(Sc1ccccc1)C(Cl)(Cl)Cl` (stereo unspecified), the inhibition is inactive: 3.13%.

Turning to `O=P(Nc1nccs1)(c1ccccc1)c1ccccc1`, the inhibition is inactive: -5.52%.

Turning to `c1nnnn1CCn1cnnn1`, the inhibition is inactive: -6.43%.

Turning to `O=P(Nc1ccccn1)(c1ccc(Br)cc1)c1ccc(Br)cc1`, the inhibition is inactive: -5.55%.

Turning to `C[C@H]1OP(=O)(Oc2ccccc2)[C@H](O)[C@H](O)[C@H]1N=[N+]=[N-]` (stereo partly specified), the inhibition is inactive: 0.13%.

Regarding `O=P(Nc1nc2ccccc2s1)(c1ccccc1)c1ccccc1`, the inhibition is inactive: -1.97%.

As to `O=[As](O)(c1ccccc1)c1ccc(O)cc1`, the inhibition is inactive: -0.23%.

With `O=[N+]([O-])c1ncn(CCn2cnc([N+](=O)[O-])n2)n1`, the inhibition was inactive: 1.62%.

For `CC(=O)NC(SC(=S)N(C)C)C(Cl)(Cl)Cl` (stereo unspecified), the inhibition was inactive: -2.3%.

Turning to `O=C(OC1CN2CCC1CC2)c1cccc(Cl)c1` (stereo unspecified), the inhibition was inactive: 15.1%.

Consider `C(Cc1nn[nH]n1)Cc1nn[nH]n1`, for which the inhibition is inactive: 17.2%.

In the case of `Nc1ccc([As](=O)(O)c2ccc([N+](=O)[O-])cc2)cc1`, the inhibition is inactive: -1.43%.

`CCOC(=O)NC(Sc1ccccc1)C(Cl)(Cl)Cl` (stereo unspecified): the inhibition is inactive: 4.01%.

For `Cc1ccc(NP(=O)(Oc2cccc(C)c2)Oc2cccc(C)c2)nc1`, the inhibition was inactive: 4.56%.

Regarding `c1ccc(-c2nn[nH]n2)c(-c2nn[nH]n2)c1`, the inhibition is inactive: -15.5%.

On to `CCNC(=S)/N=C(\N)N[N+](=O)[O-]`, for which the inhibition was inactive: -14%.

Consider `O=C(NC1CCS(=O)(=O)C1)NP(=S)(Oc1ccccc1)Oc1ccccc1` (stereo unspecified), for which the inhibition was inactive: 0.08%.

For `CCC(=O)N1C2C3N(C(=O)CC)C1C1N(C(=O)CC)C(C(N1C(=O)CC)N3C(=O)CC)N2C(=O)CC`, the inhibition was inactive: -12.3%.

Consider `Cc1ccc(OP(=O)(Nc2ccccn2)Oc2ccc(C)cc2)cc1`, for which the inhibition was inactive: -4.25%.

On to `CC(=O)NC(SC(=S)N(CC(C)C)CC(C)C)C(Cl)(Cl)Cl` (stereo unspecified), for which the inhibition is inactive: -6.49%.

In the case of `COC(=O)c1cc2c(s1)N=C(c1ccccc1)N(C)P2(=O)N1CCOCC1` (stereo unspecified), the inhibition was inactive: 5.9%.

As to `O=c1c2cc([N+](=O)[O-])ccc2[nH]c2c([N+](=O)[O-])cc([N+](=O)[O-])cc12`, the inhibition was inactive: -5.61%.

On to `CN(C)C(=O)Oc1noc2ccccc12`, for which the inhibition was inactive: 4.39%.

With `Cc1ccccc1OP(=O)(Nc1ccccn1)Oc1ccccc1C`, the inhibition is inactive: 5.62%.

With `CCOc1ccc(C2=NCC(CBr)S2)cc1` (stereo unspecified), the inhibition is inactive: 14.8%.

For `O=P1(Nc2nc3ccc(Cl)cc3s2)COc2ccccc2O1` (stereo unspecified), the inhibition was inactive: 37.1%.

As to `CC(C)(C)C(=O)NC(Sc1ccccc1)C(Cl)(Cl)Cl` (stereo unspecified), the inhibition was inactive: -5.55%.

For the compound `C[C@H]1OP(=O)(Oc2ccccc2)C[C@@H]2O[C@@H]21` (stereo partly specified), the inhibition was inactive: -1.8%.

In the case of `C[C@@H]1C=CCP(=O)(Oc2ccccc2)O1` (stereo partly specified), the inhibition is inactive: 0.26%.

Turning to `CC(=O)Nc1ccc(Oc2c([N+](=O)[O-])cc([N+](=O)[O-])cc2[N+](=O)[O-])cc1`, the inhibition was inactive: 18.6%.

In the case of `CC(=O)Nc1ccc([As](=O)(O)O)c(O)c1`, the inhibition was inactive: -4.18%.

Take `Cc1ccc(N/C(=N/P(=O)(N2CCOCC2)N2CCOCC2)N2CCOCC2)cc1`: the inhibition is inactive: -19.2%.

`NC(=O)c1cc([N+](=O)[O-])cc([N+](=O)[O-])c1N`: the inhibition was inactive: -1.18%.

Regarding `CN1CCCC(OC(=O)C(c2ccccc2)c2ccccc2)C1` (stereo unspecified), the inhibition was inactive: 22.2%.

Take `Clc1ccc(Cl)c(NC2=NCC(CBr)S2)c1` (stereo unspecified): the inhibition was inactive: -1.7%.

`Cc1ccc(OP(=O)(Nc2nccs2)Oc2ccc(C)cc2)cc1`: the inhibition is inactive: 3.39%.

`COc1ccccc1OP(=O)(Nc1ccc(C)cn1)Oc1ccccc1OC`: the inhibition is inactive: 6.13%.

Take `O=C(NC(Sc1ccncn1)C(Cl)(Cl)Cl)c1ccccc1` (stereo unspecified): the inhibition was inactive: -3.32%.

In the case of `Cc1c2non([O-])c-2c(C)[n+](=O)[n+]1[O-]`, the inhibition was inactive: 7.23%.

`Oc1ccccc1CNc1ccccn1`: the inhibition is inactive: -0.63%.

`Nc1cc(N)c2nonc2c1[N+](=O)[O-]`: the inhibition is inactive: 2.06%.

For `CC(C)CC(=O)NC(Sc1ccc(Cl)cc1)C(Cl)(Cl)Cl` (stereo unspecified), the inhibition is inactive: -5.69%.

With `O=P(Nc1nc2ccc(Cl)cc2s1)(c1ccccc1)c1ccccc1`, the inhibition is inactive: -7.88%.

Take `CC(=O)Nc1ccc([As](=O)(O)O)cc1`: the inhibition was inactive: -17.4%.

For the compound `O=C(O)c1ccccc1[As](=O)(O)O`, the inhibition was inactive: -5.66%.

With `Cc1ccc(NP(=O)(Oc2ccccc2F)Oc2ccccc2F)nc1`, the inhibition is inactive: 2.34%.

`Cc1cc(SC(NC(=O)c2ccc(F)cc2)C(Cl)(Cl)Cl)ncn1` (stereo unspecified): the inhibition is inactive: 9.93%.

Regarding `CCOP(=O)(Nc1ccccc1)OCC`, the inhibition is inactive: -4.5% and inactive: -11.6%.

In the case of `Nc1cccc2ccc([As](=O)(O)O)cc12`, the inhibition was inactive: -2.11%.

For the compound `O=C(Nc1cc([As](=O)(O)O)ccc1O)c1ccccc1`, the inhibition is inactive: -1.06%.

Take `O=[N+]([O-])c1ncn(CCn2ncnc2[N+](=O)[O-])n1`: the inhibition was inactive: -0.02%.

As to `CC(C)(C)C(=O)NC(Sc1ccncn1)C(Cl)(Cl)Cl` (stereo unspecified), the inhibition was inactive: -3.77%.

Consider `O=C(O)CNc1ccc([As](=O)(O)O)cc1`, for which the inhibition was inactive: -1.31%.

As to `O=[N+]([O-])c1cccc(NC2=NCC(CBr)S2)c1` (stereo unspecified), the inhibition was inactive: 5.39%.

For `COc1ccc(C2=NCC(CBr)S2)cc1` (stereo unspecified), the inhibition was inactive: -0.58%.

Turning to `CCc1nc2c(n1)c1c(non1O)c1c2no[n+]1[O-]`, the inhibition was inactive: 8.53%.

`O=[N+]([O-])c1cc([N+](=O)[O-])c(CCNc2ccccc2)c([N+](=O)[O-])c1`: the inhibition was inactive: -12.9%.

As to `Cc1ccc(NP(=O)(Oc2ccccc2)Oc2ccccc2)nc1`, the inhibition was inactive: -2.43%.

As for `O=[N+]([O-])c1cccc2n[nH]nc12`, the inhibition was inactive: 11.7%.

As for `CC(=O)N1C2C3N(C(C)=O)C1C1N(C(C)=O)C(C(N1C(C)=O)N3C(C)=O)N2C(C)=O`, the inhibition was inactive: -7.35%.

As to `CCN(/C(=N/P(=O)(N1CCOCC1)N1CCOCC1)N1CCOCC1)c1ccc(OC)cc1`, the inhibition is inactive: -5.89%.

Turning to `C[N+]1=C2C=CC=CC=C2SC12C([N+](=O)[O-])=CC([N+](=O)[O-])=C[C-]2[N+](=O)[O-]` (stereo unspecified), the inhibition was inactive: -3.7%.

Regarding `Nc1ccc([As](=O)(O)c2ccc(N)cc2)cc1`, the inhibition was inactive: -4.36%.

On to `CC1CCN(C(=O)Oc2c(Cl)cc(Cl)c3cccnc23)CC1`, for which the inhibition was inactive: 0.95%.

For `CN(C)C(=O)OCCc1n(C)cc[n+]1C`, the inhibition is inactive: 25.5%.

Turning to `CC(C)=N/N=C(\N)N[N+](=O)[O-]`, the inhibition was inactive: -3.02%.

Consider `COP1(=S)c2c(C)nn(CCC#N)c2N=C(c2ccc(F)cc2)N1C` (stereo unspecified), for which the inhibition was inactive: 4%.

Turning to `O=C(COc1ccccc1)OC1CN2CCC1CC2` (stereo unspecified), the inhibition is inactive: -3.35%.

With `CCOC(=O)c1ccc(NC(=O)C(C)(CCl)SC)cc1` (stereo unspecified), the inhibition was inactive: -0.52%.

For `CCC(C)N(CC(C)C)C(=S)SC(NC(C)=O)C(Cl)(Cl)Cl` (stereo unspecified), the inhibition is inactive: 3.94%.

Turning to `CCOC(=O)Nc1ccc([As](=O)(O)O)c(O)c1`, the inhibition was inactive: -0.75%.

`Cc1cc(SC(NC(=O)c2ccccc2)C(Cl)(Cl)Cl)nc(C(C)C)n1` (stereo unspecified): the inhibition was inactive: 6.39%.

With `CCOC(=O)Nc1cccc([As](=O)(O)O)c1`, the inhibition is inactive: -2.96%.

For the compound `O=P(Nc1ccccn1)(c1cccc2ccccc12)c1cccc2ccccc12`, the inhibition was inactive: -20.6%.

Regarding `Cc1cc(SC(NC=O)C(Cl)(Cl)Cl)ncn1` (stereo unspecified), the inhibition was inactive: -1.79%.

`O=[N+]([O-])c1ccc(Nc2ccc(Oc3ccc([N+](=O)[O-])cc3[N+](=O)[O-])cc2)c([N+](=O)[O-])c1`: the inhibition was inactive: -4.43%.

Consider `C[As](=O)(O)c1cccc(C(=O)O)c1`, for which the inhibition was inactive: -1.07%.

Regarding `O=[As](O)(c1ccc(O)cc1)c1ccccc1O`, the inhibition is inactive: 11.9%.

For the compound `Cc1ccc(OP(=O)(Nc2ccc([N+](=O)[O-])cn2)Oc2ccc(C)cc2)cc1`, the inhibition is inactive: -0.79%.

As to `Cc1ccc2nc3c(c(C)c2c1)CC(C(Cl)Cl)S3` (stereo unspecified), the inhibition was inactive: 2.78%.

For the compound `ClCCSc1nnc(-c2cccnc2)o1`, the inhibition was inactive: -12.3%.

Consider `CC(C)c1ccc(OP(=O)(Nc2ccccn2)Oc2ccccc2F)cc1` (stereo unspecified), for which the inhibition was inactive: -6.44%.

On to `O=[N+]([O-])c1cc([N+](=O)[O-])c(-c2ccn[nH]2)s1`, for which the inhibition is inactive: -1.26%.

Regarding `CC(C)NC(=O)NP(=O)(Oc1ccccc1)Oc1ccccc1`, the inhibition is inactive: -1.5%.

`CCN(CC)C(=S)SC(NC=O)C(Cl)(Cl)Cl` (stereo unspecified): the inhibition is inactive: -11.7%.

On to `Cc1c2c(nc3ccccc13)SC(C(Cl)Cl)C2` (stereo unspecified), for which the inhibition is inactive: 0.64%.

For `Cc1cc(=O)[nH]c(N[N+](=O)[O-])n1`, the inhibition was inactive: -5.56%.

Take `O=C(OC1CN2CCC1CC2)C12CC3CC(CC(C3)C1)C2` (stereo unspecified): the inhibition is inactive: 0.75%.

As to `COc1cc(I)ccc1[As](=O)(O)O`, the inhibition is inactive: -0.38%.

Turning to `COc1ccc2nc(NP(=O)(c3ccccc3)c3ccccc3)sc2c1`, the inhibition was inactive: -7.31%.

In the case of `COc1ccc(N/C(=N/P(=O)(N2CCOCC2)N2CCOCC2)N2CCOCC2)cc1`, the inhibition is inactive: -5.37%.

For `O=C(OC1CN2CCC1CC2)c1ccc(Cl)cc1` (stereo unspecified), the inhibition was active: 95.4%.

With `O=[As](O)(O)c1cccnc1`, the inhibition was inactive: 1.76%.

Regarding `COc1cc(C(=O)NCC2(N3CCOCC3)CCCCC2)cc(Cl)c1OC(C)C`, the inhibition was inactive: -5.56%.

Turning to `Cc1cccc(OCC(=O)OC2CN3CCC2CC3)c1` (stereo unspecified), the inhibition was inactive: 11.5%.

Turning to `O=[As](O)(c1cccc(O)c1)c1cccc(O)c1`, the inhibition was inactive: -6.72%.

In the case of `Nc1cccc2c([As](=O)(O)O)cccc12`, the inhibition was inactive: -4.17%.

As to `Cc1ccc(NCCc2c([N+](=O)[O-])cc([N+](=O)[O-])cc2[N+](=O)[O-])cc1`, the inhibition was inactive: -4.98%.

Consider `CCCOP(=S)(Nc1nc(N)cc(=O)[nH]1)OCCC`, for which the inhibition was inactive: 2.45%.

Take `CCOP(=O)(Nc1cccc2ccccc12)OCC`: the inhibition is inactive: -12.6%.

As for `COc1cc(C2NCCC3(OCCO3)C2(C)C)cc(OC)c1OC` (stereo unspecified), the inhibition was inactive: 12%.
